# Antibody variant affinities, Ab-14 light chain, assay B

The measurements come from Li et al. 2023 (doi:10.1038/s41467-023-39022-2) through the FLAb antibody collection.

All variants were tested on one target, the spike HR2 peptide PDVDLGDISGINAS (SARS-CoV-2).

The variants keep the heavy chain, the linker and the frameworks of Ab-14 (scFv order VH, a 15-residue (Gly4Ser)3 linker, VL).
VH: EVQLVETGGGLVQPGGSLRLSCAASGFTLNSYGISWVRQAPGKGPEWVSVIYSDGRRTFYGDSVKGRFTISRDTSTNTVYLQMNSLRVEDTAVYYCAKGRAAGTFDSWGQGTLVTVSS
VL: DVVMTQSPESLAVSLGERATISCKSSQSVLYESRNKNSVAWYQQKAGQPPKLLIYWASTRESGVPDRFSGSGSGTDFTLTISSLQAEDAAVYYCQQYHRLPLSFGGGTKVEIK

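The parent was found by panning a naive human phage display library on the peptide. These sequences belong to a second round, designed from the earlier measurements on random variants of the parent. Several design methods are mixed in this list. AlphaSeq pools MATa yeast showing the antibodies with MATalpha yeast showing the peptide. Mating (16 h, 30 °C) was followed by selection of diploids and sequencing of their barcodes. A regression on co-assayed BCL2-family reference pairs converts the normalised counts of each replicate to an apparent Kd. Each pool was mated in six replicate cultures.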

The whole VL of each variant is written out. Values are log10 of the apparent Kd in nM; lower means stronger binding. Averages over replicates are reported, and they cover detected replicates only. The list is sorted by this average, lowest first. Empty control strains, which show no peptide, gave a signal in 4% of pairings with all light chain designs; the median was 2.64 and 95% of these signals were weaker than 1.59. No background was subtracted.

| VL | log10 Kd (nM), mean | replicates with signal |
|---|---|---|
| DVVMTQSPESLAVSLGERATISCHLSQSVLYESRNKNSVAWYQQKAGQPPKLLIYNASTRMSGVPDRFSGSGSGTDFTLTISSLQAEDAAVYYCQQYHRLPLSFGGGTKVEIK | -0.33 | 6/6 |
| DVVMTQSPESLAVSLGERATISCKLSQSWLYESRNPNSVAWYQQKAGQPPKLLIYNASQRESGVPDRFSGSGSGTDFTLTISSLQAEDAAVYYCQQYHRLPLSFGGGTKVEIK | 0.05 | 6/6 |
| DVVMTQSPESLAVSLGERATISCNITGMVNGKGTTTKNIAWYQQKAGQPPKLLIYDAEFRAGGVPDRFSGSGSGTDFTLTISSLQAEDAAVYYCQQYSRLPLSFGGGTKVEIK | 0.24 | 6/6 |
| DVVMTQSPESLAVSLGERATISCKLMNSMLYESRNVNSVAWYQQKAGQPPKLLIYHASRRESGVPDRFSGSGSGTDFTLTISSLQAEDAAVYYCQQYHRLPLSFGGGTKVEIK | 0.28 | 6/6 |
| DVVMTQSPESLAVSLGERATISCKSHHSVLYESRNKNSVAWYQQKAGQPPKLLIYGASTRESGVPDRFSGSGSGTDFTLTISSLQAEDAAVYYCQQYHRLPLSFGGGTKVEIK | 0.35 | 6/6 |
| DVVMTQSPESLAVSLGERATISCKLDQWQDYESRNKASVAWYQQKAGQPPKLLIYQASTRESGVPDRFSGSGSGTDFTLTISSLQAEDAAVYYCQQYHRLPLSFGGGTKVEIK | 0.36 | 6/6 |
| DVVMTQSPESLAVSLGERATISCSLQTKYSTAQDRWSNVAWYQQKAGQPPKLLIYHADQREAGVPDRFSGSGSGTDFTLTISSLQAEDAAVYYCQQYFRLPIVFGGGTKVEIK | 0.45 | 6/6 |
| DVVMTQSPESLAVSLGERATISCTLTQVQGMESHNKNSVAWYQQKAGQPPKLLIYDLSTRGSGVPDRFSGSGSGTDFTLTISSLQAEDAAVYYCQQYDRLPLSFGGGTKVEIK | 0.66 | 6/6 |
| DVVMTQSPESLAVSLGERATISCKISQMVRVGSTHVNSIAWYQQKAGQPPKLLIYEEVTRAKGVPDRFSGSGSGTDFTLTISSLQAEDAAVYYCQQYHRLPLSFGGGTKVEIK | 0.76 | 6/6 |
| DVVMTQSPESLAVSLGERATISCTISQMTSLFSQSINNVAWYQQKAGQPPKLLIYEVSMREPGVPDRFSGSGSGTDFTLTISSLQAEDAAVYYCQQYDRLPLAFGGGTKVEIK | 0.93 | 6/6 |
| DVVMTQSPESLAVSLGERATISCKSSSSVLPESEVKNSVAWYQQKAGQPPKLLIYWASTRESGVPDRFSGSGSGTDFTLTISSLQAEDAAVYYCQQYHRLPLSFGGGTKVEIK | 0.98 | 6/6 |
| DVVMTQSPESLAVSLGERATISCKSPQSNLYDSANKNSVAWYQQKAGQPPKLLIYWASTRESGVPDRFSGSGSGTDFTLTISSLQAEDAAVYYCQQYHRLPLSFGGGTKVEIK | 0.99 | 6/6 |
| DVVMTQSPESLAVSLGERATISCHVSNLLTDEMYREYNVAWYQQKAGQPPKLLIYETSHVEEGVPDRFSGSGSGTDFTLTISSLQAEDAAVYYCQQYERLPLIFGGGTKVEIK | 1.15 | 6/6 |
| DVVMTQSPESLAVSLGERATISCHITYGMQVAGRHSKSIAWYQQKAGQPPKLLIYQAETREKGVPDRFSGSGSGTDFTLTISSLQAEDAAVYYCQQYDRLPLIFGGGTKVEIK | 1.20 | 6/6 |
| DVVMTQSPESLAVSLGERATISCKLYDDATSRVQTAENIAWYQQKAGQPPKLLIYEKTESLQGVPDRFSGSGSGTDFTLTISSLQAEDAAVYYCQQYHRLPLSFGGGTKVEIK | 1.37 | 6/6 |
| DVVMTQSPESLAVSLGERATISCKLPLATMQELVSKNNVAWYQQKAGQPPKLLIYELSTRGSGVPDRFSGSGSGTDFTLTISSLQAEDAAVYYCQQYHRLPLSFGGGTKVEIK | 1.42 | 6/6 |
| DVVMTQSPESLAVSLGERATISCKSSQSVLYESRNQNSVAWYQQKAGQPPKLLIYWASTRESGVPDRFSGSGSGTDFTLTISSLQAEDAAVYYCQDYHRLPLSFGGGTKVEIK | 1.71 | 6/6 |
| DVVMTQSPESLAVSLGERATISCKSSQGVLYESAMKNSVAWYQQKAGQPPKLLIYWASTRESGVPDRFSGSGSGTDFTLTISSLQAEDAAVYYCQQYHRLPLSFGGGTKVEIK | 1.78 | 5/6 |
| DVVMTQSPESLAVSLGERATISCIVTQLMLWGWHAKNSIAWYQQKAGQPPKLLIYEAQTRINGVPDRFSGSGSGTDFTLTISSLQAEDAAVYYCQQYDRLPLMFGGGTKVEIK | 1.84 | 3/6 |
| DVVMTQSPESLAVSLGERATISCKYWQSHLGESRNWNAVAWYQQKAGQPPKLLIYNASTREEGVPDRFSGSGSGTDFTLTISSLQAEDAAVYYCQQYHRLPLSFGGGTKVEIK | 1.88 | 6/6 |
| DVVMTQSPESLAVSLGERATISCKLSISYLFESQEKNSIAWYQQKAGQPPKLLIYENSTREKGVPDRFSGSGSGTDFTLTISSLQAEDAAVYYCQHYHRLPLSFGGGTKVEIK | 1.92 | 5/6 |
| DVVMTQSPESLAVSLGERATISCRLTQQMYGFNIHANAIAWYQQKAGQPPKLLIYSGKERQWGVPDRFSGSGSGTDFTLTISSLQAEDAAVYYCQQYARLPLSFGGGTKVEIK | 2.22 | 5/6 |
| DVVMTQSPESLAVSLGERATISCKSSQSVLYESREKNSVAWYQQKAGQPPKLLIYWASTRESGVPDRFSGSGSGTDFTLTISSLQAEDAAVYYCQQYHRLPLTFGGGTKVEIK | 2.22 | 6/6 |
| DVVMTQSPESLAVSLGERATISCMVSQLMVWGLHAKNSIAWYQQKAGQPPKLLIYEAQMRLNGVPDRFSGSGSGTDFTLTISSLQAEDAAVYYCQQYDRLPLFFGGGTKVEIK | 2.26 | 6/6 |
| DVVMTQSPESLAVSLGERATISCKSSQSVLYESHDKNSVAWYQQKAGQPPKLLIYWASTRESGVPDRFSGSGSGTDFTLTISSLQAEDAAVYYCQQYHRLPLSFGGGTKVEIK | 2.82 | 4/6 |

The 2 strongest on average among those seen in every replicate, once more:

VL,"log10 Kd (nM), mean",replicates with signal
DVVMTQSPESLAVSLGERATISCHLSQSVLYESRNKNSVAWYQQKAGQPPKLLIYNASTRMSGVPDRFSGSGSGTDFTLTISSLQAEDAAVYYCQQYHRLPLSFGGGTKVEIK,-0.33,6/6
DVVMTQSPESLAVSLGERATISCKLSQSWLYESRNPNSVAWYQQKAGQPPKLLIYNASQRESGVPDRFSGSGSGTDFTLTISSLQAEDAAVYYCQQYHRLPLSFGGGTKVEIK,0.05,6/6

Of ten entries with the parent sequence, four were seen in most replicates (averages 0.34 to 2.37), three in one and three in none, so single entries are noisy. The authors' rule: three or more of the six replicates give a measured affinity, fewer mean a poor binder. A sequence measured in both rounds can read differently, since the two assays cover different ranges.